From patent US20050218079A1, “Poly-beta-carboxyacrylamide polymer, use thereof and process for preparing the same” (priority 2002, published 2005)

System: Vibrio fischeri

poly-β-carboxyacrylamide polymer [compound of formula (I)]
toxicity verdict: non-toxic
